Laboratory results: US4382090A, “N-Thiazolylmethylthioalkyl-N'alkylamidines and related compounds” (Eli Lilly and Company, priority 1981, dated 1983)

Chains of the proteins cited; added tags and fusions are not shown.
UniProt P25102, whole entry: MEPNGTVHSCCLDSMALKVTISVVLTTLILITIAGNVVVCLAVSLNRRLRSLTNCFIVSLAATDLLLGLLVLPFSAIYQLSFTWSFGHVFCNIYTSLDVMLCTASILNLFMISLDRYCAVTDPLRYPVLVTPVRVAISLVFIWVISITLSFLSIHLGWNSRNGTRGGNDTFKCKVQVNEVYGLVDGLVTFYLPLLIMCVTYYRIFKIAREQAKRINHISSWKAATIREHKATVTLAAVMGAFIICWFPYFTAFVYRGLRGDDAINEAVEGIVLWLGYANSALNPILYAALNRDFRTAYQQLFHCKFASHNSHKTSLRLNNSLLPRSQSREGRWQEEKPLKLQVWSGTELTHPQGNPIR

Tests used:
H2 -receptors = molecular target: T1, H2 -receptors (Rattus norvegicus, UniProt P25102); experiment: H2-receptor blocking activity, isolated rat uterine horn (histamine relaxation of KCl-contracted uterus)
T1 construct: from tissue; host or cells: uterine horn of estrone-treated female albino rats
Method: The following assay for H2 -receptor blocking activity was employed. Female albino rats were treated with estrone 24 hours prior to the initiation of the experiment. The rats were sacrificed and the uterine horns removed therefrom and suspended at ambient temperatures in isolated organ baths containing De Jalon's solution. After equilibration, the uterine strips are exposed to 50 millimole aqueous potassium chloride, which produces a sustained contraction. When the uterus is so contracted, histamine produces a dose-dependent H2 -receptor-mediated relaxation. A control dose-response curve to histamine is constructed on each tissue. Following thorough washout of the histamine after obtaining the control dose-response curve, each antagonist (the compounds of this invention) is added for 30 minutes at a concentration of 10^-5 molar. The uterine strips are then contracted with aqueous potassium chloride in the presence of the antagonist and a second dose-response curve to histamine obtained. […] The dose ratio (DR) is calculated for each concentration of antagonist by dividing the ED50 of histamine in the presence of the competitive antagonist by the control ED50 for histamine. The dissociation constant (KB) of the antagonist is calculated from the dose-ratios by the following equation: […]

acid secretion = conditions: dog
in vivo [1] = conditions: mouse
in vivo [2] = conditions: rat

CNC(=C[N+](=O)[O-])NCCSCc1csc(CN(C)C)n1 [N-methyl-N'-2-(2-dimethylaminomethyl-4-thiazolylmethylthio)ethyl 2-nitro-1,1-ethenediamine]
affinity for the H2 -receptors relative to cimetidine (H2 -receptors; rat uterine strips, antagonist 10^-5 molar for 30 minutes): approximately 11 times
relative affinity versus cimetidine using a Schild plot (H2 -receptors; ratio of KB values, rat uterus): 10 to 1
antisecretory activity relative to cimetidine, intravenous route (acid secretion; iv infusion over 30 minutes): about 6.5 times
antisecretory activity relative to cimetidine, orally (acid secretion; oral 75 min. prior to collection of gastric secretion): about 11.0 times
LD50 (in vivo [1]; iv): 265 mg/kg
LD50 (in vivo [1]; po): 1680 mg/kg
LD50 (in vivo [2]; iv): > 300 mg/kg
LD50 (in vivo [2]; po): 1680 mg/kg
